## scFv variants of Ab-14 (heavy chain) against a SARS-CoV-2 spike peptide

Reference: Engelhart et al. 2022, doi:10.1038/s41597-022-01779-4. File: FLAb, binding data.

Antigen: PDVDLGDISGINAS, a 14-residue peptide of the SARS-CoV-2 spike HR2 region.

Ab-14 is the parent antibody, in scFv form: VH, then a 15-residue (Gly4Ser)3 linker, then VL. The light chain is unchanged in all variants.
VH: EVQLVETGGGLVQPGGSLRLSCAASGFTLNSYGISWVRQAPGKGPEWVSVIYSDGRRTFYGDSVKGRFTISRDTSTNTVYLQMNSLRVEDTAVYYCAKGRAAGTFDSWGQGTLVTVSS
VL: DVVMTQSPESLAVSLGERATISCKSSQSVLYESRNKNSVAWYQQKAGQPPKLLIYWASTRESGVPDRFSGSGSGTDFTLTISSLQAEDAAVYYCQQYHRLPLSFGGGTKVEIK

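Phage display of a naive human antibody library on the peptide gave the parent. The library (AAYL49) carries one to three amino acid substitutions per variant, with no insertions or deletions. In AlphaSeq, yeast of one mating type display the scFv and yeast of the other type display the target. Mating (16 h, 30 °C) was followed by selection of diploids and sequencing of their barcodes. The ratio of observed to expected reads was calibrated, replicate by replicate, on BCL2-family standards whose Kd was known from biolayer interferometry. Mating was done three times.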

Positions count from residue 1 of the parent VH; S107Q puts Q in place of S. Numbers give log10(Kd / nM), so 0 is 1 nM and 3 is 1 µM. Smaller is tighter. The mean shown is taken over the replicates in which the pair was detected. "ND" marks a missing value. The strain was present, yet no cells mated with the target were sequenced in that replicate, which points to weak or no binding. Nonspecific signal, from three strains lacking the peptide, appeared in 15% of pairings of library AAYL49, centred on 4.06 (5% of these signals below 2.83); values are not corrected for it. Also given: how often the same scFv was detected with the empty control strains, with their mean in brackets. Parent in this assay: reference entry 0.65, copy in this library 4.11 (one replicate of three).

{"changes": "S107Q", "log10 Kd, replicates": "0.97 / 0.89 / 1.07", "mean log10 Kd (nM)": "0.98", "empty controls": "0 of 9"}
{"changes": "Y32R S35L A102Q", "log10 Kd, replicates": "ND / ND / 3.49", "mean log10 Kd (nM)": "3.49", "empty controls": "2 of 9 (4.05)"}
{"changes": "G26Y V64M T104I", "log10 Kd, replicates": "ND / ND / ND", "mean log10 Kd (nM)": "ND", "empty controls": "0 of 9"}
{"changes": "S35N I51W R100T", "log10 Kd, replicates": "ND / ND / 2.71", "mean log10 Kd (nM)": "2.71", "empty controls": "1 of 9 (3.96)"}
{"changes": "G26T G33K G55A", "log10 Kd, replicates": "ND / ND / 5.38", "mean log10 Kd (nM)": "5.38", "empty controls": "2 of 9 (2.73)"}
{"changes": "F59P D106P", "log10 Kd, replicates": "ND / 4.08 / ND", "mean log10 Kd (nM)": "4.08", "empty controls": "4 of 9 (3.77)"}
{"changes": "L29T K65Y G99S", "log10 Kd, replicates": "3.00 / 2.72 / 3.53", "mean log10 Kd (nM)": "3.09", "empty controls": "1 of 9 (4.73)"}
{"changes": "F27P L29P S107L", "log10 Kd, replicates": "3.72 / ND / ND", "mean log10 Kd (nM)": "3.72", "empty controls": "2 of 9 (3.86)"}
{"changes": "R56P F105N D106C", "log10 Kd, replicates": "ND / ND / ND", "mean log10 Kd (nM)": "ND", "empty controls": "1 of 9 (4.31)"}
{"changes": "R57M G103V F105E", "log10 Kd, replicates": "ND / ND / ND", "mean log10 Kd (nM)": "ND", "empty controls": "1 of 9 (3.44)"}
{"changes": "F27V R57S T104L", "log10 Kd, replicates": "ND / ND / ND", "mean log10 Kd (nM)": "ND", "empty controls": "0 of 9"}
{"changes": "G33I S53M F59E", "log10 Kd, replicates": "ND / 3.88 / 5.76", "mean log10 Kd (nM)": "4.82", "empty controls": "4 of 9 (4.29)"}
{"changes": "N30V A101M S107M", "log10 Kd, replicates": "2.00 / 1.78 / 2.14", "mean log10 Kd (nM)": "1.97", "empty controls": "2 of 9 (3.33)"}
{"changes": "N30C S53C G61S", "log10 Kd, replicates": "ND / ND / 5.92", "mean log10 Kd (nM)": "5.92", "empty controls": "6 of 9 (4.18)"}
{"changes": "D54R F59N A102N", "log10 Kd, replicates": "ND / ND / ND", "mean log10 Kd (nM)": "ND", "empty controls": "1 of 9 (3.90)"}
{"changes": "S31R Y60R S107L", "log10 Kd, replicates": "ND / ND / 5.21", "mean log10 Kd (nM)": "5.21", "empty controls": "1 of 9 (3.28)"}
{"changes": "G61V T104S F105V", "log10 Kd, replicates": "4.07 / 3.89 / ND", "mean log10 Kd (nM)": "3.98", "empty controls": "2 of 9 (4.70)"}
{"changes": "N30M G55M G103N", "log10 Kd, replicates": "3.67 / 4.65 / 4.95", "mean log10 Kd (nM)": "4.42", "empty controls": "2 of 9 (3.95)"}

A selection of 2 entries from above:

changes	log10 Kd, replicates	mean log10 Kd (nM)	empty controls
L29T K65Y G99S	3.00 / 2.72 / 3.53	3.09	1 of 9 (4.73)
S35N I51W R100T	ND / ND / 2.71	2.71	1 of 9 (3.96)